Data from article PMC6079455, “Discovery of Novel Caeridins from the Skin Secretion of the Australian White's Tree Frog, Litoria caerulea” (International Journal of Genomics, 2018).

System: E. coli NCTC10418
Test: Antimicrobial test (broth microdilution)
Type: cell-based, Escherichia coli
Procedure: The antimicrobial activities were tested by the broth microdilution method and evaluated by the determination of MIC values against different tested microorganisms, the Gram-positive bacteria, S. aureus (NCTC 10788), E. faecalis (NCTC12697), and MRSA (NCTC 12493); the Gram-negative bacterium, E. coli (NCTC 10418); and the yeast, C. albicans (NCYC 1467). The microorganisms were cultured to their log phase in MHB and diluted to 5 × 10^5 CFU/ml then subsequently treated with peptide solutions of gradient concentrations. After incubation at 37°C overnight, the growth of microorganisms was detected at a wavelength of 550 nm using a Synergy HT plate reader (Biolise BioTek ELx808, Winooski, VT, USA). The MICs were determined as the lowest concentration of peptide where […].

CC[C@H](C)[C@H](NC(=O)CN)C(=O)NCC(=O)N[C@@H](C)C(=O)N[C@H](C(=O)N[C@@H](CC(C)C)C(=O)N[C@@H](CCCCN)C(=O)N[C@H](C(=O)N[C@@H](CC(C)C)C(=O)N[C@H](C(=O)N[C@H](C(=O)NCC(=O)N[C@@H](CC(C)C)C(=O)N1CCC[C@H]1C(=O)N[C@@H](C)C(=O)N[C@@H](CC(C)C)C(=O)N[C@H](C(=O)N[C@@H](CO)C(=O)N[C@@H](Cc1c[nH]c2ccccc12)C(=O)N[C@H](C(=O)N[C@@H](CCCCN)C(=O)N[C@@H](CCCNC(=N)N)C(=O)N[C@@H](CCCCN)C(=O)N[C@@H](CCCNC(=N)N)C(=O)N[C@@H](CCC(N)=O)C(=O)N[C@@H](CCC(N)=O)C(N)=O)[C@@H](C)CC)[C@@H](C)CC)[C@@H](C)O)[C@@H](C)O)C(C)C)C(C)C [Melittin, reference compound]
MBC: 8 µM | MIC (MHB, 5 × 10^5 CFU/ml, 37°C overnight, 550 nm): 4 µM
